Measured values published in US11559536B2, “Compositions and methods for the treatment of inflammation in urological pathology” (Duke University, priority 2019, dated 2023).
Where two headings read alike, the source gives them in different places.

Key:
[1] = tested on: caspase-1 activation in urothelial cells; assay: Caspase-1 assay in isolated rat urothelial cells treated with stone DAMPs, with or without inhibitors
[2] = 24 h after CP 150 mg/kg, GLY 2.5 mg/kg, Mesna 40 mg/kg

**Q.** Which “Evans blue extravasation in the hippocampus (blood brain barrier breakdown)” value (“Evans blue extravasation” below) (CP-induced cystitis; rat, in vivo) does the source give for `O=P1(N(CCCl)CCCl)NCCCO1` (stereo not shown) [CP, cyclophosphamide] here?
**A.** significant increase in Evans blue extravasation

**Q.** How did the “dose sufficient to completely inhibit CPPD-mediated caspase-1 activation” value [1] turn out when `COc1ccc(CCN(C)CCCC(C#N)(c2ccc(OC)c(OC)c2)C(C)C)cc1OC` (stereo not shown) [Verapamil] was run?
**A.** 150 µM

**Q.** With `O=S(=O)([O-])CCS.[Na+]` [Mesna, 2-mercaptoethane sulfonate sodium] as the molecule, how does the “Evans blue extravasation” value (CP-induced cystitis; [2]) read?
**A.** reduced the dye extravasation to levels not significantly different from controls

**Q.** `COc1ccc(Cl)cc1C(=O)NCCc1ccc(S(=O)(=O)NC(=O)NC2CCCCC2)cc1` [GLY, glyburide] was tested. Which “Evans blue extravasation” value (CP-induced cystitis; [2]) did it give?
**A.** reduced the dye extravasation to levels not significantly different from controls
